The results in this text go back to ChEMBL document CHEMBL5143570, “Development of naringenin-O-carbamate derivatives as multi-target-directed liagnds for the treatment of Alzheimer's disease” (Bioorg Med Chem Lett, 2022).

For the assay, the species on record is Rattus norvegicus. Nature of the assay: Selectivity index, ratio of IC50 for inhibition of rat serum butyrylcholine esterase to IC50 for inhibition of rat cortex AChE.

For `CN(C)C(=O)Oc1ccc(C2CC(=O)c3c(O)cc(OC(=O)N(C)C)cc3O2)cc1` (stereo unspecified), the Ratio IC50 amounted to 1.9.
